Measured values taken from US4518711A, “Conformationally constrained cyclic enkephalin analogs with delta receptor specificity” (Gibson-Stephens Institute, priority 1983, dated 1985).

Chains of the proteins cited; added tags and fusions are not shown.
UniProt P33533, whole entry: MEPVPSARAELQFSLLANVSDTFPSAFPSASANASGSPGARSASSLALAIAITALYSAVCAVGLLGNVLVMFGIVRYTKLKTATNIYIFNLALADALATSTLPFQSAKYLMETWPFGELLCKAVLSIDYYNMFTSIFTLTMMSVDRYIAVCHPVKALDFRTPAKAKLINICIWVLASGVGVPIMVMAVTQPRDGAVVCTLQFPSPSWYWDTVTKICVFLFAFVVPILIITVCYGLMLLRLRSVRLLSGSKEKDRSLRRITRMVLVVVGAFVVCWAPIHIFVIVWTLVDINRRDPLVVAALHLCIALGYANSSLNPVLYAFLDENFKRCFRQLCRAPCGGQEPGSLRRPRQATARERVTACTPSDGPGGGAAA

Target: T1, delta receptors (rat brain membrane preparations) (Rattus norvegicus, UniProt P33533)
T1 construct: Whole brains with cerebellum removed were homogenized in 100 volumes of Tris-HCl buffer; from tissue; host or cells: rat whole brain (cerebellum removed) membrane homogenate
Assay: Rat brain binding assay, displacement of [3H][D-Ala2, D-Leu5]enkephalin

SMILES: CSCC[C@H](NC(=O)[C@H](Cc1ccccc1)NC(=O)CNC(=O)CNC(=O)[C@@H](N)Cc1ccc(O)cc1)C(=O)O [[Met^5]Enkephalin, H2 N-Tyr-Gly-Gly-Phe-Met-OH]
- IC50: 1.75 nM
